Structures are written as SMILES.

Amino acid sequences for entries named in this document (tags omitted). A change or cut given only in a name is not applied to a line headed by its entry.
UniProt P35916, whole entry: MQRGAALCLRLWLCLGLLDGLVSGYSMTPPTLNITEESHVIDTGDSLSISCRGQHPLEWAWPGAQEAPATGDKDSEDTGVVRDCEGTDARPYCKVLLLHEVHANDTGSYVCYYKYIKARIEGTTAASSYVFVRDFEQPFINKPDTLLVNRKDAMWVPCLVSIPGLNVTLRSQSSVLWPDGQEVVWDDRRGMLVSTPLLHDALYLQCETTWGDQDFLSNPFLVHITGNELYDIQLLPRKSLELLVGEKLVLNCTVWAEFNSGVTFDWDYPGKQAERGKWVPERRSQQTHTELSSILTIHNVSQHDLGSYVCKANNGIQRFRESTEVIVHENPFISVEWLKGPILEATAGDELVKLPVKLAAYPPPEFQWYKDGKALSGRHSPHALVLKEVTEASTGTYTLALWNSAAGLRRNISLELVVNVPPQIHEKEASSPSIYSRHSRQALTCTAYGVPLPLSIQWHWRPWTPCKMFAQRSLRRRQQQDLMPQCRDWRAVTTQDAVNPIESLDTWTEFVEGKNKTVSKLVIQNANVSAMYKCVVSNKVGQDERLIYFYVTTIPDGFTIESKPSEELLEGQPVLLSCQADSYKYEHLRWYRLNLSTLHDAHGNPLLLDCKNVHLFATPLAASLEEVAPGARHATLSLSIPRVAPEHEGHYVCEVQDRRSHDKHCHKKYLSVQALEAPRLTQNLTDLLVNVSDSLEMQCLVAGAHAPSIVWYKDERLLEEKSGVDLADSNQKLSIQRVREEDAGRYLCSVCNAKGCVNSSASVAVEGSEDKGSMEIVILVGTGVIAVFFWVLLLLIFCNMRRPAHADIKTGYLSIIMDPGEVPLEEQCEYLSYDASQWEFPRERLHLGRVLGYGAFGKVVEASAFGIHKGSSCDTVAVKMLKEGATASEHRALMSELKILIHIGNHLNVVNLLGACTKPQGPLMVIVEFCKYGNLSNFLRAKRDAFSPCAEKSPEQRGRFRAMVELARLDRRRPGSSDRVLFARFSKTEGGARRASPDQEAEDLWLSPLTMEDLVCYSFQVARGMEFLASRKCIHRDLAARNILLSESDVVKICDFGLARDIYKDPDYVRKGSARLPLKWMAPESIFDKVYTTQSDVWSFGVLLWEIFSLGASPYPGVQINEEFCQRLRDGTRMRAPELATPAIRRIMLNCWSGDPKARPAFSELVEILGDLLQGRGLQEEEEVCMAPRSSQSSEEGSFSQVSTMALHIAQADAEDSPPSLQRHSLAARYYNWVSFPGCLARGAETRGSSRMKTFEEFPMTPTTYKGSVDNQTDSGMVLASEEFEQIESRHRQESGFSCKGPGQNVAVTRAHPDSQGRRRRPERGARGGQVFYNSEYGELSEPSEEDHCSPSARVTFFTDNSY
UniProt P07949, whole entry: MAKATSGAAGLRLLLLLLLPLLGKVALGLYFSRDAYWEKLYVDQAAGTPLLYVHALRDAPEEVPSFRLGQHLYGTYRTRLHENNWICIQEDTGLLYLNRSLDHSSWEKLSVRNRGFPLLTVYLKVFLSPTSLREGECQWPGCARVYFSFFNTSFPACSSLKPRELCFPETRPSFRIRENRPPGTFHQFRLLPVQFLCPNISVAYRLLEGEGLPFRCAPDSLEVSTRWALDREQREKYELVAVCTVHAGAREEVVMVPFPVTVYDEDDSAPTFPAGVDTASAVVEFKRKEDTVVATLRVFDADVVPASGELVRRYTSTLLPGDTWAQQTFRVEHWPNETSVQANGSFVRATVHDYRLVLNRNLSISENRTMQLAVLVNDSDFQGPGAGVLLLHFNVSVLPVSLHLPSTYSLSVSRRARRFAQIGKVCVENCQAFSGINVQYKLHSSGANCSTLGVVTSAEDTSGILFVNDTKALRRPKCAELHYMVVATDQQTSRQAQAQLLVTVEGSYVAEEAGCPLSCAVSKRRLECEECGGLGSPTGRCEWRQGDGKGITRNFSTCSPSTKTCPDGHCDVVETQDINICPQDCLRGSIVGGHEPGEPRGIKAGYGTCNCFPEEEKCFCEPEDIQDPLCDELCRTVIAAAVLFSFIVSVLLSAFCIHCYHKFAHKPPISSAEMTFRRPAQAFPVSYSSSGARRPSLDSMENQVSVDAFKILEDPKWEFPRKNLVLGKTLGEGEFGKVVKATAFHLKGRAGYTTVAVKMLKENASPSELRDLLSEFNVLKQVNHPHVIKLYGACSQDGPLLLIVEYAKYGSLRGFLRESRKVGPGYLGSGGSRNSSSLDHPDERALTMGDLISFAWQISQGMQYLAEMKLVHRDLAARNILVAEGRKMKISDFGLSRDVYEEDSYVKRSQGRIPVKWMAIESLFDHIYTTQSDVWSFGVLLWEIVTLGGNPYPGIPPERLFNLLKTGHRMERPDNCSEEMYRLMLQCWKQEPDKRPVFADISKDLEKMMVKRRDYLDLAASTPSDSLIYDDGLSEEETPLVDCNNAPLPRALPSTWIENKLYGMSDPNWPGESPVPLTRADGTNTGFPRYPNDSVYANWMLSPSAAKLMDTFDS
UniProt P07333, whole entry: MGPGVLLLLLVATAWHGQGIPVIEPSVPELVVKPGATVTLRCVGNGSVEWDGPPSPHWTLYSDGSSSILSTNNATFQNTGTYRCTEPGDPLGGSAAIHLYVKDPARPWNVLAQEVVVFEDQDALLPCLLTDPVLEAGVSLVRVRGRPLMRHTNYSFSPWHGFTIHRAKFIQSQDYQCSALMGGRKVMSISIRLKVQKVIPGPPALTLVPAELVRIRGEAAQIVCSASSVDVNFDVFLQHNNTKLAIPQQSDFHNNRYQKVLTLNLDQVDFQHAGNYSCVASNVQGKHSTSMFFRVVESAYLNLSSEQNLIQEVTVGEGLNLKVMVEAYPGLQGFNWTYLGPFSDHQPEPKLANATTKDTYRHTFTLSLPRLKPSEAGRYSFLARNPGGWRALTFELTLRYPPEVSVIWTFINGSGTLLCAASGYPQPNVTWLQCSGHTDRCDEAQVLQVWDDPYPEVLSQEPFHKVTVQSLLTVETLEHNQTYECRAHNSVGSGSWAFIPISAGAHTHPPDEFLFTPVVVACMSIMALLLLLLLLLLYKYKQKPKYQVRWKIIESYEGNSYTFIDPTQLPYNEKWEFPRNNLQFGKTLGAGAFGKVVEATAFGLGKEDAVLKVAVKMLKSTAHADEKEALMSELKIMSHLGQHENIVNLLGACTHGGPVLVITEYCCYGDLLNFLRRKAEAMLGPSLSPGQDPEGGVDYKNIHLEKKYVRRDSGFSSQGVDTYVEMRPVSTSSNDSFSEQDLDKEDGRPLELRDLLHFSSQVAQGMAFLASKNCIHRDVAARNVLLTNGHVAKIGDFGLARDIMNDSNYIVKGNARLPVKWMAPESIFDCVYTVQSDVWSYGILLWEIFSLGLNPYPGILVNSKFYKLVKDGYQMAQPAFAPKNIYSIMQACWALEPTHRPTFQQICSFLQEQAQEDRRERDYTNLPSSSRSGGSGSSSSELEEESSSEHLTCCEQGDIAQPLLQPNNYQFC
UniProt P09619, whole entry: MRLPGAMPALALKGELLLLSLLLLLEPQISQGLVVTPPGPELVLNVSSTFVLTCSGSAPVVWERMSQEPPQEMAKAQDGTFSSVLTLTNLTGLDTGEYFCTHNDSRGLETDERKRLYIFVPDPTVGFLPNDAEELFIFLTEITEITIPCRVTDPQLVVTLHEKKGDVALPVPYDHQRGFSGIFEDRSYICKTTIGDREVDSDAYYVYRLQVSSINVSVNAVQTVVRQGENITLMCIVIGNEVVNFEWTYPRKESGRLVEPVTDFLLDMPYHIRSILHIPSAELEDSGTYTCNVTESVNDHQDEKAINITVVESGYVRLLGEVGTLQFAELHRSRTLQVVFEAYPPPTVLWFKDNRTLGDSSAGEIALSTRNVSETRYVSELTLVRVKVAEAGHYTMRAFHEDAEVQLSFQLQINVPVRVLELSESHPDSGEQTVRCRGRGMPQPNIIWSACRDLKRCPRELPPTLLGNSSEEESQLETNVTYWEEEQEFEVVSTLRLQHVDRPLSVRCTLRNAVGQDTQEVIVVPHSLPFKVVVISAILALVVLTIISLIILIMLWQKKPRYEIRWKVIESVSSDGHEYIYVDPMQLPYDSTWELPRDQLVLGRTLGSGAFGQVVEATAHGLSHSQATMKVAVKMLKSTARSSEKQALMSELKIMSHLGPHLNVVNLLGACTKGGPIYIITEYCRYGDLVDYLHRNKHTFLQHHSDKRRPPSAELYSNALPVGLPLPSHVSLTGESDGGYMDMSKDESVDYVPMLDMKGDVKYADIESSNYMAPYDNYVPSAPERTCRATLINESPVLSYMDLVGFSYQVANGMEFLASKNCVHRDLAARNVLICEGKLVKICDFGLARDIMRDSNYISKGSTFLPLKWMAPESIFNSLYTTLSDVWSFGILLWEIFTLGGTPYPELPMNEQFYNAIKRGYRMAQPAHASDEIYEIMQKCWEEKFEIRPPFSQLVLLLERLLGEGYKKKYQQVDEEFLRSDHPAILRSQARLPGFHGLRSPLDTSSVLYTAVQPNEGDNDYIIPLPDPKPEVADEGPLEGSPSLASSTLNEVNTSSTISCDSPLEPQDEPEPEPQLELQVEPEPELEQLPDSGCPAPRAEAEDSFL
UniProt P16234: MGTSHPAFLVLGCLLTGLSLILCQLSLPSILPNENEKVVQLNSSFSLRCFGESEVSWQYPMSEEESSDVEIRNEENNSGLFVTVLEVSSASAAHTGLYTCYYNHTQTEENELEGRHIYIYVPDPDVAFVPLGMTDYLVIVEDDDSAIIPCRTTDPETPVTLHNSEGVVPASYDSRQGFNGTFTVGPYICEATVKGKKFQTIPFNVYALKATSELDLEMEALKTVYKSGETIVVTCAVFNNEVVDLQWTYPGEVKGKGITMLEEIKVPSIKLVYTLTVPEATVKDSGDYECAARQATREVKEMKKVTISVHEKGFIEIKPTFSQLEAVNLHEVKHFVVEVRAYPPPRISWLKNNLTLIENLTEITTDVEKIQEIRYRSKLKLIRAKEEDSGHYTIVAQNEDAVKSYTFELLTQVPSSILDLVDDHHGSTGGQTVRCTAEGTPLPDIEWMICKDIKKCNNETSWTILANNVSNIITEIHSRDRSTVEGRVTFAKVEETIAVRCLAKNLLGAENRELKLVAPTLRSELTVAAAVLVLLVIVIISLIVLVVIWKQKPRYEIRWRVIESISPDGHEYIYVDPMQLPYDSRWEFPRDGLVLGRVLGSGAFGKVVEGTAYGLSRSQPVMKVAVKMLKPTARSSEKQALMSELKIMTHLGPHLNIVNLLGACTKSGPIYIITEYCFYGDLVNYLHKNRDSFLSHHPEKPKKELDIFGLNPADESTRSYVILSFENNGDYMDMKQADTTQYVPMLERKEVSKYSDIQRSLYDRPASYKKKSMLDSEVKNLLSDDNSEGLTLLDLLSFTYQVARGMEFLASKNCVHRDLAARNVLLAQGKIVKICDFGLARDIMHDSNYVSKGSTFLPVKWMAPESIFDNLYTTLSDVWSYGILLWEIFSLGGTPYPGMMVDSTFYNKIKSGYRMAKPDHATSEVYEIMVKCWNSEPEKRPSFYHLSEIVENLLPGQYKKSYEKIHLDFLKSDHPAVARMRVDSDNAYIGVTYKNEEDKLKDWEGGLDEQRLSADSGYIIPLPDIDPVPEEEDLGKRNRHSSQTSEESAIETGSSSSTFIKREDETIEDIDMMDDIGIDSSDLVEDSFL

Here are results for 1 compound from ChEMBL document CHEMBL5120851, “Discovery of indirubin-3'-aminooxy-acetamide derivatives as potent and selective FLT3/D835Y mutant kinase inhibitors for acute myeloid leukemia” (Eur J Med Chem, 2022).

Holding throughout (conditions): dose 100.0 nM
For assay [1], the target named is Vascular endothelial growth factor receptor 3 (Homo sapiens) (UniProt P35916).
The target in assay [2] is Proto-oncogene tyrosine-protein kinase receptor Ret (Homo sapiens) (UniProt P07949).
The target in assay [3] is Macrophage colony-stimulating factor 1 receptor (Homo sapiens) (UniProt P07333).
Assay [4] deals with Platelet-derived growth factor receptor beta (Homo sapiens) (UniProt P09619).
Assay [5] addresses Platelet-derived growth factor receptor alpha (Homo sapiens) (UniProt P16234).

By inhibition is commonly meant the percentage by which the read-out fell short of the control. In the case of `O=C1Nc2ccccc2/C1=C1/Nc2ccccc2/C1=N\OCC(=O)N1CCNCC1`, the inhibition in assay [1] amounted to 94%; in assay [2], 99%; in assay [3], 54%; in assay [4], 72%; in assay [5], 66%.
